{"source": "patent US20260240999A1", "about": "“METHODS FOR EX VIVO ENRICHMENT AND EXPANSION OF TUMOR REACTIVE T CELLS AND RELATED COMPOSITIONS THEREOF” (H. LEE MOFFITT CANCER CENTER AND RESEARCH INSTITUTE, INC., priority 2022, published 2026)", "system": "tumor-derived cells from CRC or melanoma tumors", "test": "Expansion of tumor-derived cells at low or high IL-2 concentration", "assay_type": "cell-based, human", "conditions": "300 IU/mL (low) vs 6000 IU/mL (high) recombinant IL-2; CRC SCS and melanoma fragment cultures; 14-31 days", "method": "Single cell suspensions (SCSs) were obtained by homogenization and enzyme digestion of primary tumors from donor patients with CRC or melanoma. As described in Example 1, cells were cultured in a conventional 6-well plate or a gas-permeable 24-well culture plate. Where possible, multiple conditions from each donor were initiated and averaged (error bars represent±standard deviation). For 6-well plates, cells were seeded between 250,000 and 1,000,000 cells/mL and for gas-permeable 24-well plates cells were seeded between 5,000 and 750,000 cells/mL. In both cases, the cells were seeded in either RPMI containing 5% human serum or serum free OpTmizer medium with recombinant IL-2 supplemented at a concentration of IL-2 of 300 IU/mL or 6000 IU/mL. The media also contained gentamicin at 10 μg/ml and a final concentration of 2.0 mM of a L-alanyl-L-glutamine dipeptide form of glutamine (GlutaMAX Supplement; Thermofisher). The cells were incubated for up to 31 days, typically 14 to 21 days, wherein 50% of cellular media was exchanged every other day beginning on the 5th day of culture. […]\nFor all conditions, cell counts were performed approximately every other day using the NC-200 Automated Cell Counter (Chemometec) and samples were collected for fluorescence-activated cell sorting (FACS). […]", "note": "“Also recorded” adds a separate entry of the source.", "data": [{"substance": "IL-2: recombinant cytokine that supports T cell recovery and proliferation", "values": [{"measurement": "cellular expansion (total cell numbers and fold expansion)", "result": "did not result in an appreciably distinct expansion response when compared with a lower dose; also recorded: not observed to be necessary for cellular expansion"}]}]}
